For 1 compound, IC50 results are on record in ChEMBL document CHEMBL1138608, “The discovery of potent, selective, and orally bioavailable PDE9 inhibitors as potential hypoglycemic agents” (Bioorg Med Chem Lett, 2009).

Protein sequences, listed by entry. Tags and fused reporters are not part of them. Lines headed by an entry give the natural chain unless they say otherwise; changes in a name come on top.
UniProt O76083: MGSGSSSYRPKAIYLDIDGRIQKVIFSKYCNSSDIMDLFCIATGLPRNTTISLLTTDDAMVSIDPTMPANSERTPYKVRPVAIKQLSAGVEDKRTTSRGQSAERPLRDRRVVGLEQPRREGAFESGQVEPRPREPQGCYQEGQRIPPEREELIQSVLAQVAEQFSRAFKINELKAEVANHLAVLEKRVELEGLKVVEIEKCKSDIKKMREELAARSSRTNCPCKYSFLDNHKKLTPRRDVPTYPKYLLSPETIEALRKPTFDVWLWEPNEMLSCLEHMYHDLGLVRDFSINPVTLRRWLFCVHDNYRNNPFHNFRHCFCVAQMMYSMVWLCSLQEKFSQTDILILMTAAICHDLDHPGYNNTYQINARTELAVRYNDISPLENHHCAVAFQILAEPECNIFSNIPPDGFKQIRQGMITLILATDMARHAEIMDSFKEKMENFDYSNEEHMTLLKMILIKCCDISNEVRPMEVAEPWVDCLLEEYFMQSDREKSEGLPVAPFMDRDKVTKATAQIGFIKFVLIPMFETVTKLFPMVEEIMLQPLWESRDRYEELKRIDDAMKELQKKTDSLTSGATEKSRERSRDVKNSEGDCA

Molecules are shown by their SMILES.

The target of this experiment is High affinity cGMP-specific 3',5'-cyclic phosphodiesterase 9A (Homo sapiens, UniProt O76083). The experiment can be described thus: Inhibition of human recombinant PDE9 expressed in SF9 cells by scintillation proximity assay.

For orientation: IC50 means the concentration that inhibits the measured activity by half. On to `CC(C)c1n[nH]c2c(=O)[nH]c(Cc3cccc(Cl)c3)nc12`, for which the IC50 was 10 nM.
